Assay [1] addresses T1, butyrylcholinesterase (BuChE) (Homo sapiens, UniProt P06276).
T1 construct: purchased MyBiosource, CA, and USA MBS846801
The assay is classed as biochemical. As to conditions: read-out: IC50 BuChE; mean ± SD, n = 3, each in triplicate. The procedure: (§1) The in vitro AChE and BuChE inhibitory effects and selectivity of nine TCM compounds were evaluated using the QuantiChrom^TM AChE inhibitor screening kit (IACE-100, bioassay systems, USA) for AChE inhibition and the BuChE activity kit (catalog # MBS846801, MyBiosource, CA, USA) for BuChE inhibition. […] The QuantiChrom^TM kit was used to assess the activity of AChE and BuChE by recording enzymatic activity at different concentrations of the test compounds and comparing it to activity without inhibitors, followed by plotting dose-response curves. The experimental data were fitted by nonlinear regression analysis to yield IC50 values. The selectivity of the compounds for AChE relative to BuChE was determined by calculating the Selectivity Index (SI) using the formula BuChE IC50 values are divided by AChE IC50 values to obtain SI.

Protein sequences, listed by entry. Tags and fused reporters are not part of them. Residues count along the entry.
UniProt P06276, 29-602: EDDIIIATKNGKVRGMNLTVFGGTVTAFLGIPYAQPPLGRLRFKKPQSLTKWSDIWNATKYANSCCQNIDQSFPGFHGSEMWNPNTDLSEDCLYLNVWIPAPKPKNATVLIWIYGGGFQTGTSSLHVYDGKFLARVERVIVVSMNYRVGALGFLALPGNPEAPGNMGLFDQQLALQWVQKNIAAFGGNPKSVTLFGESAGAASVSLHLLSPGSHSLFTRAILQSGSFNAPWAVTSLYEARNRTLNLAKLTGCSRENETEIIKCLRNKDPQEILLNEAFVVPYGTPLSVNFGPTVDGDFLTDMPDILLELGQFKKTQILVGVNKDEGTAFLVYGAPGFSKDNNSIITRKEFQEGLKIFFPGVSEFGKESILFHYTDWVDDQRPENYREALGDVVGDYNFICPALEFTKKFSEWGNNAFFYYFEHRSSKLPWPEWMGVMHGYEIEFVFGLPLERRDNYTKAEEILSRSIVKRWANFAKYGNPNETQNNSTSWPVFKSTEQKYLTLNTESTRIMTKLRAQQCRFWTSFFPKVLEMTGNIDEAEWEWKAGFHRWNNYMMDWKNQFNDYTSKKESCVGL
UniProt P22303, 32-614: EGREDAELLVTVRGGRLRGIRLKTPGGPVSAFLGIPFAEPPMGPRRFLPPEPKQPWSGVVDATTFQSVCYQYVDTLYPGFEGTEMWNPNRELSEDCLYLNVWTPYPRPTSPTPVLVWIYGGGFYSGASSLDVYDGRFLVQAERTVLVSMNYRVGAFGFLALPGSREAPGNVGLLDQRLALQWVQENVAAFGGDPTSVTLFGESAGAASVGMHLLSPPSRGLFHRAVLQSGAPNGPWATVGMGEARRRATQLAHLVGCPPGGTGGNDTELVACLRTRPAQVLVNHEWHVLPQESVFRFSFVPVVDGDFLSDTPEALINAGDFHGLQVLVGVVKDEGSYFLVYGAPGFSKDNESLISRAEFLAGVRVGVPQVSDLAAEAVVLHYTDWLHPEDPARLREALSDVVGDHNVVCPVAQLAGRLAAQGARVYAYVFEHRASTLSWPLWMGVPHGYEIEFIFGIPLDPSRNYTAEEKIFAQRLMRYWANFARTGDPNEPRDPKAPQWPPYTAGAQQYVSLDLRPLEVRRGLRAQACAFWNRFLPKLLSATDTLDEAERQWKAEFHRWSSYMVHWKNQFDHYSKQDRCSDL

Assay [2] concerns the target T2, acetylcholinesterase (AChE) (Homo sapiens, UniProt P22303).
T2 construct: purchased bioassay systems, USA IACE-100
The assay is classed as biochemical. To be noted: mean ± SD, n = 3, each in triplicate. How it is done: as §1

The results in this text go back to PMC12296705, “In Vivo and Bioinformatics Evaluation of Nine Traditional Chinese Medicine Compounds Targeting Acetylcholinesterase and Butyrylcholinesterase Enzymes in Alzheimer’s Disease” (Iranian Journal of Pharmaceutical Research : IJPR, 2025).

Regarding Asiaticoside, the IC50 in assay [1] was 83.3 ± 3.14 nM; in assay [2], 71.1 ± 3.54 nM.

As usually defined, the IC50 is the midpoint of a concentration-inhibition curve.
